Experimental findings from US7416848B2, “DNA encoding SNORF25 receptor” (H. Lundbeck A/S, priority 1999, dated 2008) are described below.

Chains of the proteins cited; added tags and fusions are not shown.
UniProt Q8TDV5, whole entry: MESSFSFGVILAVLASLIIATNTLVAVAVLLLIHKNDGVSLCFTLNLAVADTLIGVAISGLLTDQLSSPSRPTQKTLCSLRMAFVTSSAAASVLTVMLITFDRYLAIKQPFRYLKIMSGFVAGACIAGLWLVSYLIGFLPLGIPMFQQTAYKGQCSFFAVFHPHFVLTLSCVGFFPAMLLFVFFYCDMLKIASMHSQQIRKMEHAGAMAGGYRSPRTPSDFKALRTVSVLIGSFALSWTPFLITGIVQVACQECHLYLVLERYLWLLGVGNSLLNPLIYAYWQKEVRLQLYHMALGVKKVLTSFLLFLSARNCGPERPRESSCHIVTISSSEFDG

Assay [1] concerns the target T1, SNORF25 (Homo sapiens, UniProt Q8TDV5). The experiment in a line: Stimulation of cAMP release by CHO cells stably expressing hSNORF25 receptors. The assay is classed as cell-based. How it is done: CHO cells are grown on 150 mm plates in HAM's F-12 medium with supplements (10% bovine calf serum, 4 mM L-glutamine and 100 units/ml penicillin/100 μg/ml streptomycin) at 37° C., 5% CO2. Stock plates of CHO cells are trypsinized and split 1:8 every 3–4 days.
Heterologous DNA can be stably incorporated into host cells, causing the cell to perpetually express a foreign protein. Methods for the delivery of the DNA into the cell are similar to those described above for transient expression but require the co-transfection of an ancillary gene to confer drug resistance on the targeted host cell. The ensuing drug resistance can be exploited to select and maintain cells that have taken up the DNA. […]
The receptor-mediated stimulation or inhibition of cyclic AMP (cAMP) formation may be assayed in cells expressing the receptors. […] The plates are stored at 4° C. for 15 min, and the cAMP content in the stopping solution is measured by radioimmunoassay. Radioactivity may be quantified using a gamma counter equipped with data reduction software. […]
According to a second method, cells are washed 2 times with HEPES buffered saline, as described above, and incubated overnight. […] The plates are stored at 4° C. for 15 min, and the cAMP content in the stopping solution is measured by radioimmunoassay. Radioactivity may be quantified using a gamma counter equipped with data reduction software. […]

Assay [2] concerns the target T1, SNORF25. The experiment in a line: CFTR Cl- currents in Xenopus oocytes co-injected with SNORF25 and CFTR mRNA. The following applies: 10 μM; oocytes with SNORF25 and CFTR mRNA (FIG. 12A).

What is called EC50 is the concentration giving half of the maximal effect. Low values mean higher potency in that assay, high ones lower potency in that assay.

With `CCCCCCCCCCCCCCCCCCOC[C@H](COP(=O)([O-])OCC[N+](C)(C)C)OC(C)=O`, the “% of PAF(C18) Response” value at SNORF25 [1] (maximum response as % of maximum response produced by PAF(C18) (taken as 100%)) was 100%. Moreover, at SNORF25 [1] (mean ± S.E.M., at least 3 experiments, CHO cells stably expressing hSNORF25), the EC50 is 537 nM. The CFTR current response result on SNORF25 [2] is “robust responses”.
